# Source: US20220370406A1, “METHOD OF TREATING STIMULANT USE DISORDER USING A COMBINATION OF TOPIRAMATE AND PHENTERMINE” (University of Kentucky Research Foundation, priority 2019, published 2022)
# Assays:
# [1] = system: participants with cocaine use disorder; assay: Experimental sessions: cardiovascular measures after cocaine sampling dose during maintenance; conditions: cocaine 80 mg relative to cocaine 0 mg; maintenance topiramate (0 mg/day)+phentermine (0 mg/day)
# [2] = system: participants with cocaine use disorder; assay: Cocaine self-administration on progressive-ratio task during topiramate-phentermine maintenance; type: in vivo, human; conditions: cocaine 40 mg; topiramate (100 mg/day)+phentermine (0 mg/day) vs topiramate (0 mg/day)+phentermine (0 mg/day)
SMILES,systolic and diastolic blood pressure [1],number of cocaine choices [2]
"COC(=O)[C@H]1[C@@H](OC(=O)c2ccccc2)C[C@@H]2CC[C@H]1N2C [Cocaine, cocaine]",significantly increased,
CC1(C)O[C@@H]2[C@@H](CO[C@@]3(COS(N)(=O)=O)OC(C)(C)O[C@@H]23)O1 [topiramate],,significantly reduced
